Results published in patent publication US20230391745A1, “SMALL MOLECULE DEGRADERS OF THE BROMODOMAIN AND PHD FINGER TRANSCRIPTION FACTOR” (Regents of the University of Minnesota, priority 2022, published 2023).

The chains behind the UniProt entries cited, without tags or fusion partners. Where a name states a change or a piece, a line headed by the entry shows the natural chain unless it says otherwise. Residues count along the entry.
UniProt Q96SW2, whole entry: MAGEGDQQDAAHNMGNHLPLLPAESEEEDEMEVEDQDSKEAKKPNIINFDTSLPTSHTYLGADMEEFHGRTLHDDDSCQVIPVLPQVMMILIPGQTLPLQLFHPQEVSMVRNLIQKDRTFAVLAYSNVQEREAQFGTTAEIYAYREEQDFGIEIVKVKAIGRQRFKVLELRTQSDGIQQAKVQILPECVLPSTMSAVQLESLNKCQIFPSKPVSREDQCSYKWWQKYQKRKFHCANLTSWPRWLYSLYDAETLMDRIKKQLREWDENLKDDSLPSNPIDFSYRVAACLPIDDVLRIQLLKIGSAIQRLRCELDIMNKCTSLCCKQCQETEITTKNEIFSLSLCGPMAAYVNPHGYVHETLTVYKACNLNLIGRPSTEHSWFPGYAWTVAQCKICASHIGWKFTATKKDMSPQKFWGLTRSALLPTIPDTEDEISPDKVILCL
UniProt Q96SW2, 40-442 limits assumed: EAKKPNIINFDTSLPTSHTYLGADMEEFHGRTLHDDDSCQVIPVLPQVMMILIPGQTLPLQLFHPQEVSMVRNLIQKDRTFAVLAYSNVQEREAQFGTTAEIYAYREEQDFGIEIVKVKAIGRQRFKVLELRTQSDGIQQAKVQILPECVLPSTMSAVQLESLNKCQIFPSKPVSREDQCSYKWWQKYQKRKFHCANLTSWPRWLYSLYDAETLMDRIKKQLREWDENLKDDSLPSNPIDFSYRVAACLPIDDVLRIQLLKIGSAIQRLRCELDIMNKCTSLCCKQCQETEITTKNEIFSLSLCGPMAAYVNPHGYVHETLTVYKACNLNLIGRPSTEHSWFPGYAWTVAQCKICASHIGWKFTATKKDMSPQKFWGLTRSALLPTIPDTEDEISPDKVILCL
UniProt Q9H8M2, whole entry: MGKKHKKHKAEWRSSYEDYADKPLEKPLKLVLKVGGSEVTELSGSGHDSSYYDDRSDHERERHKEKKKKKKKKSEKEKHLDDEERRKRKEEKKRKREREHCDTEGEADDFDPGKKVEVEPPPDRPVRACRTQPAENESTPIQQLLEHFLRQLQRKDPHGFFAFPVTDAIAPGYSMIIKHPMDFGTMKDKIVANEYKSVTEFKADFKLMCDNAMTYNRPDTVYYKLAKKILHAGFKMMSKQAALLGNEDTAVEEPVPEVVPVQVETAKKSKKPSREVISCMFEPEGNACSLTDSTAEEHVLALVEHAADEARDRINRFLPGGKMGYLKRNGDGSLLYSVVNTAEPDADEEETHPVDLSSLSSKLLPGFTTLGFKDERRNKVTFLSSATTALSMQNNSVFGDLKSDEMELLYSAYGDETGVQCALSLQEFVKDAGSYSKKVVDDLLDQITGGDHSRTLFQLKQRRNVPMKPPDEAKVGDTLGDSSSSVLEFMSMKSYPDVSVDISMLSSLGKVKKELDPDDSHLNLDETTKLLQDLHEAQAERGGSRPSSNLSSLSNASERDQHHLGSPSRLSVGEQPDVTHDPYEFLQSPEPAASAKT
UniProt Q9H8M2, 136-240 limits assumed: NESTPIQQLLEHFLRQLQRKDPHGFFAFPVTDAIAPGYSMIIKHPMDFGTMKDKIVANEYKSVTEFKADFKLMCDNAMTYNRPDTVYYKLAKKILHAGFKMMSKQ
UniProt Q9BXF3, whole entry: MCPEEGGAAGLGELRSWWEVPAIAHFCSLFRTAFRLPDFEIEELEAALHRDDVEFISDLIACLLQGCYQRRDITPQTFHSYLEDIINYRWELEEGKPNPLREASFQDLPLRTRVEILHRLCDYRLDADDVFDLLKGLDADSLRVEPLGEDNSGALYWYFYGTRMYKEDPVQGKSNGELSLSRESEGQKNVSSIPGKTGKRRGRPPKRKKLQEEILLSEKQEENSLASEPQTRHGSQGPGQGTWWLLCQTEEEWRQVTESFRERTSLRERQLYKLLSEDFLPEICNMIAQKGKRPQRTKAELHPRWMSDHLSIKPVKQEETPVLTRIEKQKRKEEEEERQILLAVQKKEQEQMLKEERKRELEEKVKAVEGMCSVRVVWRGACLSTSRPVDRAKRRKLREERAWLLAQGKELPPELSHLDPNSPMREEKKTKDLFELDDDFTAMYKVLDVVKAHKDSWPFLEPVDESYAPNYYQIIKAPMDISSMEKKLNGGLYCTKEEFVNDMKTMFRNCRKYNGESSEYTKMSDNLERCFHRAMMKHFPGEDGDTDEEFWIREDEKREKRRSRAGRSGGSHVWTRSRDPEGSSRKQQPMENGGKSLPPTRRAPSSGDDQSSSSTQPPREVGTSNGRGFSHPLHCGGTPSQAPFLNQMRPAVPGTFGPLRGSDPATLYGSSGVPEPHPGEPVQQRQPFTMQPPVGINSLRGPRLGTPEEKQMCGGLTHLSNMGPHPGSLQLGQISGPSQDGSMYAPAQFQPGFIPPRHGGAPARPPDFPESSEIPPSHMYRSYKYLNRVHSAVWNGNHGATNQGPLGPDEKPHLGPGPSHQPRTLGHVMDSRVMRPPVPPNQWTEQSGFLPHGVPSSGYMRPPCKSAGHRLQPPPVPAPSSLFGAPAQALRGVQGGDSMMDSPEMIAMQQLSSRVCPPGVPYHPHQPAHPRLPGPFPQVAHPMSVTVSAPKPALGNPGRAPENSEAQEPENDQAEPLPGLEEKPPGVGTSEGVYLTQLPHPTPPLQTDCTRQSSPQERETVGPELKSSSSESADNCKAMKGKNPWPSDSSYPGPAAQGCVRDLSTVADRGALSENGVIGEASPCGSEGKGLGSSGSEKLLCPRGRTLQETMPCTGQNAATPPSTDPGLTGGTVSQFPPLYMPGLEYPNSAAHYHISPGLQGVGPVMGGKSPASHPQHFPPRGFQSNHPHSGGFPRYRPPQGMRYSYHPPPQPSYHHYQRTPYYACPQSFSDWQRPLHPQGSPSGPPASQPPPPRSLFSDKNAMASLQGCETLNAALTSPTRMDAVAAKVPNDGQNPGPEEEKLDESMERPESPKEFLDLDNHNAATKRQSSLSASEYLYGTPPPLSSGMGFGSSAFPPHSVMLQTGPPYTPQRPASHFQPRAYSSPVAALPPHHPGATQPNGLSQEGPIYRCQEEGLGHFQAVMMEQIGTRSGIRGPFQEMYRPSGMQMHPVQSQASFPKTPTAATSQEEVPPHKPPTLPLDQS
UniProt Q9BXF3, 434-538 limits assumed: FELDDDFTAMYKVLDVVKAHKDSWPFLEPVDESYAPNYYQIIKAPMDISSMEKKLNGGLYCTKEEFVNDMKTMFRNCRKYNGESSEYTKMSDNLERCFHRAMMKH
UniProt Q92831, 723-827 limits assumed: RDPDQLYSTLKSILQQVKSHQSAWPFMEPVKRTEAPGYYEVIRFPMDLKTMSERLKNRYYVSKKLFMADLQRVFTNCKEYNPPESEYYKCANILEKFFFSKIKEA
UniProt Q16531, whole entry partner: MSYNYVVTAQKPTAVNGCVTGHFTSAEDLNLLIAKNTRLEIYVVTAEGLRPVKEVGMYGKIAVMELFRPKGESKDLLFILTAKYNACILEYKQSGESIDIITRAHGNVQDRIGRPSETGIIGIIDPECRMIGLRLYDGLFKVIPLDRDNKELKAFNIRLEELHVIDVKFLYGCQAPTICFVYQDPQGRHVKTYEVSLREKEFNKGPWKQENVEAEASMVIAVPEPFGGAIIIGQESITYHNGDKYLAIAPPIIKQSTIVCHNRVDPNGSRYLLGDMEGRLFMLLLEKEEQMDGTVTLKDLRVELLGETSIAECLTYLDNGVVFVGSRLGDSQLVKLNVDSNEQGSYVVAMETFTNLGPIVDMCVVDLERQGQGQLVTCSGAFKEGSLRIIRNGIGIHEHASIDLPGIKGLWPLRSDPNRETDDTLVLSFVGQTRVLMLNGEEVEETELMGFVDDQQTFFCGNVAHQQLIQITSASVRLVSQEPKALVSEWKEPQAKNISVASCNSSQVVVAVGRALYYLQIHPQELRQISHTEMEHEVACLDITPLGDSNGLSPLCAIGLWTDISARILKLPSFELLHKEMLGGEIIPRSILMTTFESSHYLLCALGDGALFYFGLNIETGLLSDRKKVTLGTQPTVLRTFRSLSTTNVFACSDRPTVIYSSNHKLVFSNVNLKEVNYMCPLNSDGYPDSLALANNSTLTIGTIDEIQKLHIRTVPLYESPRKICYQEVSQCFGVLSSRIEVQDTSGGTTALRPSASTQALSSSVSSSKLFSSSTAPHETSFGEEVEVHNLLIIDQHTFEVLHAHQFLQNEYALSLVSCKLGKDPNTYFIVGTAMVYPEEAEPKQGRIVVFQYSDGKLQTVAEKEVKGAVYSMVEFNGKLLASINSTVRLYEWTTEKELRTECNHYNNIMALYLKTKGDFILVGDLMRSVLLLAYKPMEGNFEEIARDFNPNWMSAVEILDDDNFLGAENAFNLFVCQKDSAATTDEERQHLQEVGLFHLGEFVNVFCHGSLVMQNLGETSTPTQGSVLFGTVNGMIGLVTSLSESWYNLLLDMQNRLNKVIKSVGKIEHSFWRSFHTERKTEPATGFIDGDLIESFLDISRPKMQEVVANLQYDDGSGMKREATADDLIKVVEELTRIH

Columns and labels:
[1] = target: Nluc-BRD9-FL fusion construct (Homo sapiens, UniProt Q96SW2+Q9H8M2); experiment: Degradation of Nluc-BRD9-FL construct by total donor luminescence; details: similar conditions as BPTF study (1 μM, 6 h), HEK293T cells
[2] = target: CECR2 (Homo sapiens, UniProt Q9BXF3); experiment: Western blotting of CECR2 in HEK293T cells; details: 6 h treatment, between 8-200 nM concentrations
[3] = target: Nluc-BPTF-BD fusion construct (Homo sapiens, UniProt Q12830+Q96SW2); experiment: In-cell NanoBRET CRBN ternary complex assay with Nluc-BPTF-BD; details: 1 μM degrader, C-terminal Nluc-BPTF-BD fusion, HEK293T cells
[4] = target: GST-PCAF and His-tagged CRBN-DDB1 (Homo sapiens, UniProt Q92831+Q96SW2); experiment: In vitro AlphaScreen ternary complex assay, PCAF; details: His-CRBN-DDB1, varying degrader concentrations
[5] = target: GST-BRD9 and His-tagged CRBN-DDB1 (Homo sapiens, UniProt Q96SW2+Q9H8M2); experiment: In vitro AlphaScreen ternary complex assay, BRD9; details: GST-BRD9, His-CRBN-DDB1, varying degrader concentrations
[6] = target: GST-CECR2 and His-tagged CRBN-DDB1 (Homo sapiens, UniProt Q96SW2+Q9BXF3); experiment: In vitro AlphaScreen ternary complex assay, CECR2; details: GST-CECR2, His-CRBN-DDB1, varying degrader concentrations
[7] = target: GST-BPTF and His-tagged CRBN-DDB1 (Homo sapiens, UniProt Q12830+Q96SW2); experiment: In vitro AlphaScreen ternary complex assay, BPTF; details: His-CRBN-DDB1, varying degrader concentrations

| SMILES | Degradation of the Nluc-BRD9-FL construct [1] | Degradation of CECR2 by western blotting [2] | BRET ratio, fold increase over DMSO (in-cell ternary complex formation) [3] [fold] | Ternary complex formation with PCAF (AlphaScreen signal amplitude) [4] | Ternary complex formation with BRD9 (AlphaScreen signal amplitude) [5] | Ternary complex formation with CECR2 (AlphaScreen signal amplitude) [6] | Ternary complex formation with BPTF (AlphaScreen signal amplitude) [7] |
| --- | --- | --- | --- | --- | --- | --- | --- |
| CS(=O)(=O)c1nc(NCCCn2cccn2)cc(-c2ccc(OCCCN3CCN(CCCCCCOc4cccc5c4C(=O)N(C4CCC(=O)NC4=O)C5=O)CC3)cc2)n1 (stereo not shown) | degrade BRD9-FL, albeit not as potently as dBRD9 | significant degradation | 3.1 |  |  |  |  |
| CN(CCCOc1ccc(-c2cc(NCCCn3cccn3)nc(S(C)(=O)=O)n2)cc1)CCOCCOCCOc1cccc2c1C(=O)N(C1CCC(=O)NC1=O)C2=O (stereo not shown) |  |  |  | generally lower | generally lower | generally lower | generally lower |
| CS(=O)(=O)c1nc(NCCCn2cccn2)cc(-c2ccc(OCCCN3CCN(CCOCCOCCOc4cccc5c4C(=O)N(C4CCC(=O)NC4=O)C5=O)CC3)cc2)n1 (stereo not shown) | degrade BRD9-FL, albeit not as potently as dBRD9 | significant degradation | 1.8 |  |  |  |  |
